Literature values, collected in patent publication US20050250835A1, “Novel tumor-selective chemotherapeutic agents” (priority 2004, published 2005).

Assays:
[1] = tested on: metastatic renal cell carcinoma; settings: cited from earlier work
[2] = cited from earlier work
[3] = tested on: different human tumor xenografts; settings: human tumor xenografts s.c. in nude mice; cited from earlier work
[4] = tested on: malignant mesothelioma of the pleura or peritoneum; settings: cited from earlier work
[5] = 17 patients, 50 mg/m^2 once a week intravenously
[6] = weekly i.v. infusion of 50 mg/m^2, 29 patients

Substance: MTX-HSA
- duration of stable disease ([1]; 50 mg/m^2 once a week): up to 8 months
- objective responses [1, 5]: no objective responses
- patients with stable disease (stabilization>2 months) [1, 5]: Eight
- tolerability ([2]; 20, 40, 50 and 60 mg/m^2, 17 patients): well tolerated
- patients with tumor responses ([2]; Phase I study of 17 patients): three
- antitumor activity in vivo [3]: dose-dependent antitumor activity
- patients with NC>3 month ([4]; 23/29 patients assessed): 11 patients
- patients with early disease progression within the first 2 months ([4]; 23/29 patients assessed): 6 patients
- grade 3 stomatitis [4, 6]: 10%
- grade 3 thrombopenia [4, 6]: 2%
- grade 4 stomatitis [4, 6]: 2%
- grade 4 thrombopenia [4, 6]: 12%
